Values quoted from earlier work as cited in patent US20150072881A1 (priority 2010, published 2015).

System: genes (and gene products, eg., mRNA or protein)
Settings: in vivo

For `CCCCCc1cc(O)c2c(c1)OC(C)(C)[C@@H]1CCC(C)=C[C@@H]21` [THC, Delta-tetrahydrocannabinol], the mRNA increase is listed as “zif268, blocked by SL327 an inhibitor of MAPK/ERK kinase, as”.
